# Apparent affinities of Ab-14 variants for a coronavirus HR2 peptide

Source: Li et al. 2023 (doi:10.1038/s41467-023-39022-2), MIT Lincoln Laboratory and A-Alpha Bio; data file from the FLAb repository.

Target peptide (SARS-CoV-2 spike, HR2 region): PDVDLGDISGINAS

The variants keep the heavy chain, the linker and the frameworks of Ab-14 (scFv order VH, three GGGGS repeats, VL).
VH: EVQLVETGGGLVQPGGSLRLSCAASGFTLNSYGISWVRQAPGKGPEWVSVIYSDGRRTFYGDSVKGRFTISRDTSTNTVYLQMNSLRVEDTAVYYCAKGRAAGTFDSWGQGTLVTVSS
VL: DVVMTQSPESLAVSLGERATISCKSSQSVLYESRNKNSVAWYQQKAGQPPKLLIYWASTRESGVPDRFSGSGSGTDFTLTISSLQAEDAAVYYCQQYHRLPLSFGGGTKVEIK

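The parent was found by panning a naive human phage display library on the peptide. The variants were designed computationally from a first round of random CDR variants and then made and measured. Group labels follow the data file (En: ensemble of fine-tuned language models; GP: Gaussian process model; HC: hill climbing; Gen: genetic algorithm; Gibbs: Gibbs sampling; a sequence that several methods proposed may carry one label only). The assay is AlphaSeq: two haploid yeast populations carry antibody and antigen on their surface. Pairs that bind mate more often; barcode pairs of the diploids are counted by sequencing. The ratio of observed to expected reads was calibrated, replicate by replicate, on BCL2-family standards whose Kd was known from biolayer interferometry. Each pool was mated in six replicate cultures.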

Variants are written as CDR1, CDR2 and CDR3 of the light chain (limits as in the source). Parent: KSSQSVLYESRNKNSVA, WASTRES, QQYHRLPLS. Variants here have more than six changes. Each Kd is an estimate from the mating assay, the geometric mean of the replicates in which the pair was seen; lower is stronger. Where no diploid with the target was found in any replicate, the entry reads "nd": below detection, most likely a poor binder, though not proof of it. The list is sorted by this average, lowest first, undetected variants last.

| CDR-L1 | CDR-L2 | CDR-L3 | group | Kd (apparent) | replicates with signal | empty controls |
|---|---|---|---|---|---|---|
| KLMGSVLYESRMKNAVA | GASQRES | QQYHRLPLS | GP_Gibbs | 450 pM | 6 of 6 | 1 of 18 |
| KLDSQYQHGTNQKSAMA | DSSVSTQ | QQYSRLPLS | En_Gibbs | 610 pM | 6 of 6 | 0 of 18 |
| KLSESFLYESRWKNSVA | DASTRLE | QQYHRLPLS | GP_Gibbs | 770 pM | 6 of 6 | 0 of 18 |
| KLQSITGTEKVRGNNVA | EMETRER | QQYNRLPLA | En_Gen | 1.4 nM | 6 of 6 | 0 of 18 |
| HLNLEYMQMMKDHNSIA | DTEHKTP | QQYFRLPIS | En_Gibbs | 1.4 nM | 6 of 6 | 0 of 18 |
| HISPSFMVESKLRNSVA | QTETRVQ | QQYDRLPLS | En_HC | 1.6 nM | 6 of 6 | 1 of 18 |
| HISTMMRYESSLKNAIA | NAQTRES | QQYHRLPLS | En_HC | 1.7 nM | 6 of 6 | 2 of 18 |
| KLTSITGLEKVKGNNVA | EMETREE | QQYNRLPLS | En_Gen | 1.8 nM | 6 of 6 | 1 of 18 |
| SVSGFMKTLSAHRNSVA | DMTNRED | QQYDRLPLS | En_Gen | 1.9 nM | 6 of 6 | 3 of 18 |
| VMQIQSDGMLNAKHNVA | GVDTRLE | QHYFRLPLL | En_Gibbs | 2.1 nM | 6 of 6 | 2 of 18 |
| KLSTLFYKESKNKNNVA | EMTTRGS | QQYDRLPLS | En_HC | 2.2 nM | 6 of 6 | 2 of 18 |
| MMSQVTGIGTRHRNNVA | QTSTREP | QQYDRLPLM | En_Gen | 2.5 nM | 6 of 6 | 0 of 18 |
| TISQSTLMTGLNRNSVA | QASERIE | QQYHRLPLS | En_HC | 2.7 nM | 6 of 6 | 2 of 18 |
| QLAVDRLQEYEMGDAIA | GKTLRVD | QQYARLPLS | En_Gibbs | 2.8 nM | 6 of 6 | 1 of 18 |
| KISQMVRVGSTKQNSIA | EEATRSD | QQYHRLPLS | En_Gen | 3.1 nM | 6 of 6 | 2 of 18 |
| KYSQSHGGESRNKNSVA | HASLREE | QQYHRLPLS | GP_Gibbs | 3.8 nM | 6 of 6 | 0 of 18 |
| KLSNSVWMESRNKNQVA | EASTREM | QQYHRLPLS | GP_Gibbs | 3.9 nM | 6 of 6 | 2 of 18 |
| KISQSVGYEDRNKNSVA | NASQRMQ | QQYHRLPLS | GP_Gibbs | 4.2 nM | 6 of 6 | 2 of 18 |
| TLYGLTNSMSKNKNSVA | EMTTREK | QQYDRLPLM | En_Gen | 4.3 nM | 6 of 6 | 2 of 18 |
| HLKQVLNGVNKKSNSVA | HMNTREE | QQYDHLPLI | En_Gen | 4.3 nM | 6 of 6 | 2 of 18 |
| QVQAFNEHLKDQTQAMA | EATMRDQ | QQYERLPLS | En_Gibbs | 5.0 nM | 6 of 6 | 1 of 18 |
| KLGAATRFESSNKDSIA | NNSTREE | QQYHRLPLS | En_HC | 5.0 nM | 6 of 6 | 2 of 18 |
| MFSQLMEYGSRYKNSVA | QASVREN | QQYHWLPLS | En_HC | 5.4 nM | 6 of 6 | 0 of 18 |
| KLSMVTNSEHKVKNSIA | EMVTREV | QQYDRLPLE | En_HC | 5.9 nM | 6 of 6 | 0 of 18 |
| KLRQVTGYEMYNKDSVA | QTSTRVN | QDYHRLPLS | En_HC | 5.9 nM | 6 of 6 | 1 of 18 |
| VLSDTIENQADEADNIA | DATETSK | QQYYRLPLS | En_Gibbs | 6.5 nM | 6 of 6 | 2 of 18 |
| HMSMLTLGGMRARNSVA | QMTTREN | QQYDRLPLA | En_Gen | 6.5 nM | 5 of 6 | 0 of 18 |
| KLSFMVMEGSRNKNSVA | SASLREW | QQYHRLPLS | GP_Gibbs | 6.8 nM | 6 of 6 | 1 of 18 |
| TIAQMFLGESRNRNSVA | QASTRES | QSYDRLPLS | En_HC | 6.8 nM | 6 of 6 | 1 of 18 |
| TLTQVQGMESHNQDSVA | DLSTRGS | QQYHRLPLS | En_HC | 7.4 nM | 6 of 6 | 3 of 18 |
| KITQIFSPKGNSWHSVA | NANTLAH | QQYYMLPLM | En_Gibbs | 7.7 nM | 6 of 6 | 1 of 18 |
| KFSGSVNSMSVSKSAVA | EMSTRPE | QQYNRLPLA | En_Gen | 8.5 nM | 3 of 6 | 0 of 18 |
| RLYNQETEQIQHANSIA | DRDEVDS | QQYAHLPLS | En_Gibbs | 9.2 nM | 6 of 6 | 0 of 18 |
| QISGITGHQSMSKNNVA | EMETREN | QQYDRLPLS | En_Gen | 10 nM | 6 of 6 | 0 of 18 |
| QIGMLMNFESLKINNVA | QMETRVN | QQYDRLPLS | En_Gen | 11 nM | 6 of 6 | 0 of 18 |
| KLAQGIYEPVRKSNNIA | EASHVCD | QQYERLPLE | En_Gibbs | 12 nM | 6 of 6 | 0 of 18 |
| HISQMWMLESYKKNNVA | EESTRED | QSYFRLPLS | En_HC | 15 nM | 6 of 6 | 1 of 18 |
| MISQLYNLGQFAINSVA | QASERNN | QQYDRLPLT | En_Gen | 19 nM | 6 of 6 | 0 of 18 |
| MLSQMWAIGMKVSNSVA | QASTRFD | QQYERLPFI | En_Gen | 19 nM | 1 of 6 | 0 of 18 |
| MISQLFNMGTFAINSVA | QASIRNE | QQYDRLPLM | En_Gen | 25 nM | 5 of 6 | 1 of 18 |
| KISGMYNKESKNKNSVA | EMVNRES | QQYDRLPLS | En_HC | 27 nM | 6 of 6 | 0 of 18 |
| KLQNFSQEDDKMWNNIA | ETTMVHT | QQYMTLPLM | En_Gibbs | 27 nM | 6 of 6 | 0 of 18 |
| KLRMMTGYESRNKDSIA | DNSTRGR | QQYHRLPLS | En_HC | 31 nM | 6 of 6 | 0 of 18 |
| SVTIEMDQQQEQYNSVA | GEQKTAD | QQYGRLPLS | En_Gibbs | 37 nM | 6 of 6 | 0 of 18 |
| KVSEMMAFLSSNRNSVA | DNSTRGA | QQYHRLPLS | En_HC | 41 nM | 6 of 6 | 0 of 18 |
| HISMLTLQGMRHRNSVA | QMTTREN | QQYDRLPLS | En_Gen | 82 nM | 6 of 6 | 1 of 18 |
| MISQVLNTLYATGNNVA | DLQERED | QQYFRLPLS | En_Gen | 93 nM | 2 of 6 | 1 of 18 |
| KLLQTVMNGRTNRNNVA | HMTMRED | QQYFRLPLS | En_HC | 120 nM | 6 of 6 | 0 of 18 |
| KVSEFMRGLLMRKNSIA | DNVTRSN | QQYDRLPLS | En_Gen | 180 nM | 3 of 6 | 1 of 18 |
| KISQMYRYEQQNSSSIA | EANMREQ | QSYHRLPLS | En_HC | 210 nM | 5 of 6 | 0 of 18 |
| HVSESVLAQSKMKNSVA | ENSTRES | QQYDRLPLS | En_HC | 320 nM | 5 of 6 | 4 of 18 |
| RLLDWAYNLTAKDSNIA | DQDIAGS | QQYSHLPLA | En_Gibbs | 1.4 µM | 4 of 6 | 1 of 18 |
| TLYGLSNSSSINKNSVA | EMTTRED | QQYDRLPLI | En_Gen | 1.6 µM | 6 of 6 | 3 of 18 |
| KISMSTTFESRNKNSVA | ENSTRES | QFYHRLPLS | En_HC | nd | 0 of 6 | 0 of 18 |

Repeated from above, the 8 best binders with a signal in all replicates:

{"CDR-L1": "KLMGSVLYESRMKNAVA", "CDR-L2": "GASQRES", "CDR-L3": "QQYHRLPLS", "group": "GP_Gibbs", "Kd (apparent)": "450 pM", "replicates with signal": "6 of 6", "empty controls": "1 of 18"}
{"CDR-L1": "KLDSQYQHGTNQKSAMA", "CDR-L2": "DSSVSTQ", "CDR-L3": "QQYSRLPLS", "group": "En_Gibbs", "Kd (apparent)": "610 pM", "replicates with signal": "6 of 6", "empty controls": "0 of 18"}
{"CDR-L1": "KLSESFLYESRWKNSVA", "CDR-L2": "DASTRLE", "CDR-L3": "QQYHRLPLS", "group": "GP_Gibbs", "Kd (apparent)": "770 pM", "replicates with signal": "6 of 6", "empty controls": "0 of 18"}
{"CDR-L1": "KLQSITGTEKVRGNNVA", "CDR-L2": "EMETRER", "CDR-L3": "QQYNRLPLA", "group": "En_Gen", "Kd (apparent)": "1.4 nM", "replicates with signal": "6 of 6", "empty controls": "0 of 18"}
{"CDR-L1": "HLNLEYMQMMKDHNSIA", "CDR-L2": "DTEHKTP", "CDR-L3": "QQYFRLPIS", "group": "En_Gibbs", "Kd (apparent)": "1.4 nM", "replicates with signal": "6 of 6", "empty controls": "0 of 18"}
{"CDR-L1": "HISPSFMVESKLRNSVA", "CDR-L2": "QTETRVQ", "CDR-L3": "QQYDRLPLS", "group": "En_HC", "Kd (apparent)": "1.6 nM", "replicates with signal": "6 of 6", "empty controls": "1 of 18"}
{"CDR-L1": "HISTMMRYESSLKNAIA", "CDR-L2": "NAQTRES", "CDR-L3": "QQYHRLPLS", "group": "En_HC", "Kd (apparent)": "1.7 nM", "replicates with signal": "6 of 6", "empty controls": "2 of 18"}
{"CDR-L1": "KLTSITGLEKVKGNNVA", "CDR-L2": "EMETREE", "CDR-L3": "QQYNRLPLS", "group": "En_Gen", "Kd (apparent)": "1.8 nM", "replicates with signal": "6 of 6", "empty controls": "1 of 18"}

The parent sequence was in this pool as ten entries: three were never detected, three once, and four in most replicates, with averages from 2.2 nM to 240 nM. In the paper, a design with two or fewer of six values counts as a poor binder. A sequence measured in both rounds can read differently, since the two assays cover different ranges. Empty control strains, which show no peptide, gave a signal in 4% of pairings with all light chain designs; the median was 430 nM and 95% of these signals were weaker than 38 nM. No background was subtracted. Also given: how often the same scFv was detected with the empty control strains.